Earlier results as cited in patent US20080286340A1, “Buffered nicotine containing products” (priority 2007, published 2008).

Conditions: cited from earlier work

In the case of `NC(=O)C[C@H](N)C(=O)O` [Aspargine], the Solubility in water is listed as 25.1 g/kg.
